Experimental data taken from patent US8481501B2 (priority 2004, dated 2013).

By UniProt entry, the sequences of proteins in these tests, tags left out.
UniProt P42866, whole entry: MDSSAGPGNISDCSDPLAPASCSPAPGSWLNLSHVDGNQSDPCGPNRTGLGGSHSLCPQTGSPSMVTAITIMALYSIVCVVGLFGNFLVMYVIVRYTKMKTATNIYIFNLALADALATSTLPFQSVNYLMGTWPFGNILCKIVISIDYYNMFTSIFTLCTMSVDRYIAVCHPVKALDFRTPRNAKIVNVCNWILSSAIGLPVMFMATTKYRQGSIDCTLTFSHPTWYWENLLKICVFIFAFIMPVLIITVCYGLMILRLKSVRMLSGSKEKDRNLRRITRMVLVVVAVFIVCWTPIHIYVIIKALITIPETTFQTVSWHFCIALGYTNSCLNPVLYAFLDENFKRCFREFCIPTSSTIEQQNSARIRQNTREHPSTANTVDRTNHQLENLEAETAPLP

Target: T1, mu receptor (Mus musculus, UniProt P42866)
T1 construct: expressed in transfected cells
Type: cell-based

## CN1CCC23c4c5ccc(O)c4OC2C(O)C=CC3C1C5 (stereo not shown) [morphine, reference compound]
  Mu receptor internalization % control: 93%
